According to patent US9034798B2, “Capture compounds, collections thereof and methods for analyzing the proteome and complex compositions” (CAPROTEC BIOANALYTICS GMBH, priority 2003, dated 2015):
pKd: −log10 of the molar value.

Amino acid sequences for entries named in this document (tags omitted).
UniProt P00915, whole entry: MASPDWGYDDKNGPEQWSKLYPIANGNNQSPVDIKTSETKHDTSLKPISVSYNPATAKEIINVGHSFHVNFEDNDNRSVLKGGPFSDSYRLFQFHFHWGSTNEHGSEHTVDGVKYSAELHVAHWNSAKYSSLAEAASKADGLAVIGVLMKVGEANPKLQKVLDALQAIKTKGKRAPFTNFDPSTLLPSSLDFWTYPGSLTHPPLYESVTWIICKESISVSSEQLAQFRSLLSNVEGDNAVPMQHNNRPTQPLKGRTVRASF

Key:
[1] = biological target: Carbonic Anhydrase isoform I (Homo sapiens, UniProt P00915); experiment: Capture and isolation of Carbonic Anhydrase from lysed red blood cells, MALDI
[2] = biological target: Carbonic Anhydrase isoform II (Homo sapiens, UniProt P00918); experiment: as above
Carbonic Anhydrase II = Carbonic Anhydrase II (Homo sapiens, UniProt P00918); experiment: Capture and pull-down of doped carbonic anhydrase II from HEK293 cellular fractions; conditions: avidin-coated (SoftLink) resin
CA I [3] = biological target: T1, CA I (Homo sapiens, UniProt P00915); experiment: Selective protein capture using purified proteins (FIG. 31)
[4] = system: other purified proteins tested; experiment: as above
Carbonic II = Carbonic II (Homo sapiens, UniProt P00918); experiment: as above
CA II isoform = CA II isoform (Homo sapiens, UniProt P00918); conditions: read-out: Kd for CA II isoform; according to literature; independently confirmed using activity assay; cited from earlier work
CA I [5] = biological target: T1, CA I; conditions: read-out: Kd for CA I; according to literature; independently confirmed using activity assay; cited from earlier work

For `[N-]=[N+]=Nc1ccc(C(=O)NC(CCCCNC(=O)CCCCCNC(=O)CCCC[C@H]2SCC3NC(=O)NC32)C(=O)OCCNC(=O)c2ccc(S(N)(=O)=O)cc2)cc1` (stereo partly drawn), the “capture of Carbonic Anhydrase isoform I” value [1] was “covalently captures”, the “capture of Carbonic Anhydrase isoform II” value [2] was “covalently captures” and the “isolation of doped CA II from protein mixture” value (Carbonic Anhydrase II; FPLC purified protein mixture from HEK293) was “pulled out from all other proteins”. The “isolation of doped CA II from protein mixture” value (Carbonic Anhydrase II; whole cytosolic extract from HEK293) was “pulled out from all other proteins”, the “affinity and capture efficiency” value (CA I [3]) was “lower” and the “affinity and capture efficiency” value [4] was “negligible”. For the same molecule, the “affinity and capture efficiency” value (Carbonic II) was “highest”, the pKd (CA II isoform) was 8.00 and the pKd (CA I [5]) was 6.00.
